The numbers were not newly measured in patent US20210299075A1 (priority 2020, published 2021), which cites them from elsewhere.

For this data set the following is noted: Hendley et al.

For the molecule `Oc1c(Cl)cc(Cl)c(Cl)c1Cc1c(O)c(Cl)cc(Cl)c1Cl` [hexachlorophene], the antiviral activity entry is “performed poorly”.
